# scFv variants of Ab-14 (light chain) against a SARS-CoV-2 spike peptide

From the AlphaSeq antibody data of Engelhart et al. 2022 (doi:10.1038/s41597-022-01779-4), copy in the FLAb collection.

Antigen: PDVDLGDISGINAS, a 14-residue peptide of the SARS-CoV-2 spike HR2 region.

Parent scFv Ab-14: VH joined to VL by a (GGGGS)3 linker. Changes lie in the light chain CDRs alone.
VH: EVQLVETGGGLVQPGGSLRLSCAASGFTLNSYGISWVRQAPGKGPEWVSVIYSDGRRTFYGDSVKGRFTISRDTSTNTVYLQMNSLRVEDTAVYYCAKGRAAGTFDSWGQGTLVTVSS
VL: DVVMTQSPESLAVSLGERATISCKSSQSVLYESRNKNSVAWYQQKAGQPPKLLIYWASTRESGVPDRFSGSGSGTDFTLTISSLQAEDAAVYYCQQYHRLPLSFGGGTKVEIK

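The library (AAYL50) carries one to three amino acid substitutions per variant, with no insertions or deletions. The assay is AlphaSeq: two haploid yeast populations carry antibody and antigen on their surface. Mating (16 h, 30 °C) was followed by selection of diploids and sequencing of their barcodes. Each replicate has its own calibration line, from reference interactions of the BCL2 family. Each pool was mated in three replicate cultures.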

Each variant is given by its three light chain CDRs, as the data file delimits them; those of the parent are KSSQSVLYESRNKNSVA, WASTRES, QQYHRLPLS.
Numbers give log10(Kd / nM), so 0 is 1 nM and 3 is 1 µM. Smaller is tighter.
Replicates are averaged; those with no signal do not enter the mean.
"nd" means that the variant was in the library but no mating with the target was seen in that replicate; the authors take this as a sign of poor binding, and no number exists.

CDR-L1,CDR-L2,CDR-L3,"log10 Kd, replicates","mean, log10 nM",empty controls
KSSQSVLYFSRNKNSYA,WASTRES,QPYHRLPLS,4.28 3.80 nd,4.04,0 of 9
KSSQEVLYEMRNKNSVA,WASTRES,QQYHRGPLS,2.00 2.00 2.57,2.19,1 of 9 (4.79)
KSSQSVLEESRNKNIVA,WASTRES,QQYHRLPRS,5.85 4.17 4.44,4.82,6 of 9 (5.02)
KSSQSVLYESRNKWSVK,WAWTRES,QQYHRLPLS,nd 3.32 nd,3.32,2 of 9 (3.31)
KWSQSVCYESTNKNSVA,WASTRES,QQYHRLPLS,0.57 0.90 0.76,0.74,3 of 9 (3.86)
KSSQSVLYESRNKNSVA,WASTPMS,SQYHRLPLS,nd nd nd,nd,2 of 9 (4.39)
KSSQSVLYESRNKNSCA,AASTREW,QQYHRLPLS,0.24 0.55 0.38,0.39,3 of 9 (4.32)
KSSQSVLYESRNKNSVE,AASTRES,QQYHRLPLP,3.64 nd 4.68,4.16,3 of 9 (3.46)
KSSQSVLYESRNKNSVS,WASTRKS,AQYHRLPLS,nd nd nd,nd,0 of 9
VSQQSVLYESRNKNSVA,WASTRES,QQYHRLPLS,nd nd nd,nd,2 of 9 (3.67)
KSSQSSLYESRNKNSVA,PAGTRES,QQYHRLPLS,3.56 nd nd,3.56,3 of 9 (3.64)
KSSQSVLYESRNKNSVA,WLSTREC,LQYHRLPLS,nd nd 3.27,3.27,2 of 9 (3.74)
KSSQSVLYESRNKNLVA,WRSKRES,QQYHRLPLS,3.08 nd nd,3.08,1 of 9 (2.56)
KSHQSVLYESRNINSVA,WASTRES,QQYHRLPQS,nd 4.49 nd,4.49,3 of 9 (5.17)
KISQSVLYESRNKNSVL,WASTRKS,QQYHRLPLS,5.31 nd 4.23,4.77,6 of 9 (4.26)
KSSQSVLYEKRNKNSVA,VASTRES,QQYHRLPLS,5.99 nd 3.69,4.84,1 of 9 (4.77)
KSSQSVIYESRNKNSVA,WASERES,QQYHRLPPS,nd nd nd,nd,1 of 9 (3.21)
KSSQTVLYESRNKNHVA,WASTRES,QQYHVLPLS,2.83 3.26 3.43,3.17,2 of 9 (3.54)
KSSQSVLYSSRNKPSVA,WASTRES,QQLHRLPLS,nd nd nd,nd,2 of 9 (4.54)
KSSQSVLYESRNKNDVA,WASERES,QQYHQLPLS,3.52 3.21 2.85,3.19,2 of 9 (4.62)
KSVQSVLYEKRNKNSVA,WAETRES,QQYHRLPLS,2.12 2.82 2.52,2.49,3 of 9 (3.70)
KSSQSVLYESRNKNSVA,WASWRED,QQYHRLPLI,1.12 1.23 1.32,1.22,5 of 9 (4.59)
KSSQSVLYESRNKRSVA,WAWTREC,QQYHRLPLS,nd nd nd,nd,0 of 9
KSSQSVLAESRNKHSVA,WASTRES,QWYHRLPLS,nd 4.10 3.62,3.86,2 of 9 (3.69)
KSLQSVLYESRNKNSKA,WASTNES,QQYHRLPLS,nd nd nd,nd,0 of 9
KSSQSVLYESRNKNSNA,WASTRES,QQYHRLPWS,nd 3.29 6.07,4.68,3 of 9 (3.83)
KSSISMLYESRNKFSVA,WASTRES,QQYHRLPLS,1.17 1.16 1.30,1.21,2 of 9 (3.68)
KYSQSVLYESRNKNSVA,WASTRES,QQYHRLPPS,nd 3.69 nd,3.69,0 of 9
KSSQAVHYESRNKNSVA,WASTRES,QQYHPLPLS,1.74 1.89 1.73,1.79,1 of 9 (4.99)
KSSQSVLGESWNKKSVA,WASTRES,QQYHRLPLS,1.05 0.85 1.21,1.04,0 of 9
KISQSVLYESQNKNSVA,WASTRSS,QQYHRLPLS,-0.24 0.09 -0.18,-0.11,5 of 9 (4.90)
KISQSVLYDSRNKNSVA,WASTRES,QQYHRLSLS,nd nd 3.83,3.83,0 of 9
KSSQSVLYESRLKNSVA,WASARES,QQYHRLNLS,nd nd nd,nd,4 of 9 (3.90)

The 2 strongest on average among those seen in every replicate, once more:

CDR-L1,CDR-L2,CDR-L3,"log10 Kd, replicates","mean, log10 nM",empty controls
KISQSVLYESQNKNSVA,WASTRSS,QQYHRLPLS,-0.24 0.09 -0.18,-0.11,5 of 9 (4.90)
KSSQSVLYESRNKNSCA,AASTREW,QQYHRLPLS,0.24 0.55 0.38,0.39,3 of 9 (4.32)

Nonspecific signal, from three strains lacking the peptide, appeared in 18% of pairings of library AAYL50, centred on 4.19 (5% of these signals below 2.99); values are not corrected for it. The control count says in how many pairings with the empty strains this scFv gave a signal, with their mean in brackets.